# How the values were obtained:
# [1] = Stability in simulated intestinal fluid (SIF); assay type: in vitro ADME; conditions: 100 fold dilution of standard SIF concentration, 37° C., 20 μM
# How it was run: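 Peptides at 20 μM final were incubated at 37 °C in SIF (potassium phosphate with pancreatin, pH 6.8), and reactions were quenched with acetonitrile/1% formic acid at time points from 0 min to 24 h. Percent remaining relative to time 0 was determined by LC-MS/MS against an internal standard, and half-life came from a first-order decay fit.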
# IL-23R = molecular target: T1, IL-23R (Homo sapiens, UniProt Q5VWK5); assay: DB cells IL23R pSTAT3 cell assay (pStat3 HTRF); assay type: cell-based; conditions: IL-23R-expressing DB cells, IL-23 0.5 nM, 30 minutes
# T1 construct: examines the levels of pSTAT3 in IL-23R-expressing DB cells when stimulated with IL-23; host or cells: DB cells
# T1 sequence (Q5VWK5 24-629): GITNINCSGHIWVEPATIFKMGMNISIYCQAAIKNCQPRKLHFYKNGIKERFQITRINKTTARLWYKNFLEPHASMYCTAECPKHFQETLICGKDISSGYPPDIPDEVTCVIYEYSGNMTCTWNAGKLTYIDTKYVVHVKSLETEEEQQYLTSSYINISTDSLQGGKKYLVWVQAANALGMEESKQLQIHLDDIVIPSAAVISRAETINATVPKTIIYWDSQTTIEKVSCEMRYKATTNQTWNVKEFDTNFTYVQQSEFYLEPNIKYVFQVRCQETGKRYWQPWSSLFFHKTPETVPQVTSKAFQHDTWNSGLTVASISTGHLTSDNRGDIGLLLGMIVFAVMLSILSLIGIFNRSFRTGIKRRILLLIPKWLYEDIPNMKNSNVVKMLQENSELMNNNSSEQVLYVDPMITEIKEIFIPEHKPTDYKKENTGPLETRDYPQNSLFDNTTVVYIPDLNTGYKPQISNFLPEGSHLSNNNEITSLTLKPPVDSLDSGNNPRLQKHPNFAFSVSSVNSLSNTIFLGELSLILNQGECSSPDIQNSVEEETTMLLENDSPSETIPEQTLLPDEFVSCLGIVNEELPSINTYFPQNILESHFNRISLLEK
# Excerpt: Human ELISA indicates the IL23-IL23R competitive binding assay described below, Rat ELISA indicates the rat IL-23R competitive binding ELISA assay described below, and pStat3HTRF indicates the DB cells IL-23R pSTAT3 cell assay described below. The peptides depicted in Table E1A and Table E1B are cyclized via a disulfide bridge formed between two Pen residues in these peptides. The peptides depicted in Table E2 are cyclized via a thioether bond between the indicated amino acid residues. Table E2 provides an illustrative structure depicting thioether cyclization, which is indicated in the table by the term “cyclo,” with the cyclic region bracketed immediately following the term “cyclo.” For certain peptides, the residue Abu is present where indicated, whereas in other embodiments, e.g., those related to the non-cyclized form, the Abu may be referred to as a hSer(Cl) or homoSer residue.
# DB Cells IL23R pSTAT3 Cell Assay
# Where not shown or it is marked as “0”, data was not yet determined.
# [2] = Stability in cynomolgus monkey fecal homogenate; assay type: in vitro ADME; conditions: 20% cynomolgus monkey fecal homogenate, 37° C., 20 μM
# [3] = Stability in human fecal homogenate; assay type: in vitro ADME; conditions: 20% human fecal homogenate, 37° C., 20 μM
# [4] = molecular target: IL-23 stimulated phosphorylated STAT3 in PBMCs (Homo sapiens, UniProt Q5VWK5); assay: PBMC pSTAT3 assay; assay type: cell-based; conditions: PBMCs from healthy donors, IL-23 5 ng/mL, 30 minutes
# [5] = molecular target: IL-23 induced IFNγ in natural killer (NK) cells (Homo sapiens, UniProt Q5VWK5); assay: NK cell based assay (IL-23/IL-18 induced IFNγ); conditions: IL-23 at EC50 to EC75 and IL-18 10 ng/mL, IFNγ in supernatant after 20 to 24 hours
# Excerpt: Example 3: NK Cell Based Assay
# Stability in rat plasma = assay type: in vitro ADME; conditions: SD rat plasma, 37° C., 20 μM
substance,measurement,setting,value
Ac-[(D)Arg]-[Abu]-S-T-[W(7-Me)]-Q-[Cys]-Phe[4-(2-aminoethoxy)]-[2-Nal]-[THP]-E-N-H-[Sarc]-NH2 [Peptide 100],SIF t½,[1],>24.0 h
same,IC50,IL-23R,1.51 nM
same,t½: Monkey Feces anaerobic,[2],5.4 h
same,t½: Human Feces anaerobic,[3],1.6 h
Ac-[(D)Arg]-[Pen]-N-T-[W(7-Me)]-[Lys(Ac)]-[Pen]-Phe[4-(2-aminoethoxy)]-[2-Nal]-[THP]-E-N-[His(3-Me)]-[Sarc]-NH2 [Peptide 261],IC50,IL-23R,0.046 nM
Ac-[Abu]-Q-T-[W(7-Me)]-Q-[Cys]-Phe[4-(2-aminoethoxy)]-[2-Nal]-[THP]-E-N-[3Pal]-[Sarc]-NH2 [Peptide 140],IC50,IL-23R,0.791 nM
Ac-[Abu]-Q-T-[W(7-Me)]-Q-[Cys]-Phe[4-(2-aminoethoxy)]-[2-Nal]-[THP]-E-N-[3Pal]-[bA]-NH2 [Peptide 113],SIF t½,[1],10 h
same,IC50,IL-23R,0.057 nM
same,t½: Monkey Feces anaerobic,[2],3.4 h
same,t½: Human Feces anaerobic,[3],1.1 h
Ac-[Abu]-Q-T-[W(7-Me)]-Q-[Cys]-Phe[4-(2-aminoethoxy)]-[2-Nal]-[THP]-E-S-[3Pal]-[bA]-NH2 [Peptide 114],SIF t½,[1],10.7 h
same,IC50,IL-23R,0.035 nM
same,t½: Monkey Feces anaerobic,[2],2.7 h
same,t½: Human Feces anaerobic,[3],0.8 h
Ac-[Pen]-N-D-[W(7-Me)]-[Lys(Ac)]-[Pen]-Phe[4-(2-aminoethoxy)]-[2-Nal]-[THP]-E-N-[3Pal]-[Sarc]-NH2 [Peptide 290],IC50,IL-23R,0.033 nM
Ac-[Pen]-N-T-W-[Lys(Ac)]-[Pen]-Phe[4-(2-aminoethoxy)]-[2-Nal]-[THP]-E-N-[3Pal]-[Sarc]-NH2 [Peptide 158],IC50,[4],0.011 nM
same,IC50,[5],0.0258 nM
Ac-[Pen]-N-T-[W(5-CN)]-[Lys(Ac)]-[Pen]-Phe[4-(2-aminoethoxy)]-[2-Nal]-[THP]-E-N-[3Pal]-[Sarc]-NH2 [Peptide 154],IC50,IL-23R,> 10 nM
Ac-[Pen]-N-T-[W(5-Ca)]-[Lys(Ac)]-[Pen]-Phe[4-(2-aminoethoxy)]-[2-Nal]-[THP]-E-N-[3Pal]-[Sarc]-NH2 [Peptide 160],IC50,IL-23R,> 10 nM
Ac-[Pen]-N-T-[W(5-Ph)]-[Lys(Ac)]-[Pen]-Phe[4-(2-aminoethoxy)]-[2-Nal]-[THP]-E-N-[3Pal]-[Sarc]-NH2 [Peptide 150],SIF t½,[1],>24.0 h
same,IC50,IL-23R,> 10 nM
same,t½: Monkey Feces anaerobic,[2],>24.0 h
same,t½: Human Feces anaerobic,[3],>24.0 h
Ac-[Pen]-N-T-[W(7-Et)]-[Lys(Ac)]-[Pen]-Phe[4-(2-aminoethoxy)]-[2-Nal]-[THP]-E-N-H-[Sarc]-NH2 [Peptide 32],SIF t½,[1],>24.0 h
same,IC50,[4],1.4 nM
same,t½: Rat Plasma EDTA,Stability in rat plasma,>24.0 h
same,t½: Monkey Feces anaerobic,[2],10.2 h
same,t½: Human Feces anaerobic,[3],21.1 h
same,IC50,[5],1.3 nM
Ac-[Pen]-N-T-[W(7-Et)]-[Lys(Ac)]-[Pen]-Phe[4-(2-aminoethoxy)]-[2-Nal]-[a-MeLys]-[Lys(Ac)]-N-H-[Sarc]-NH2 [Peptide 33],SIF t½,[1],>24.0 h
same,IC50,[4],2.2 nM
same,t½: Rat Plasma EDTA,Stability in rat plasma,>24.0 h
same,t½: Monkey Feces anaerobic,[2],18.1 h
same,t½: Human Feces anaerobic,[3],25.7 h
same,IC50,[5],1.32 nM
Ac-[Pen]-N-T-[W(7-Me)]-[Lys(Ac)]-[Pen]-Phe[4-(2-aminoethoxy)]-[2-Nal]-[THP]-[Lys(Ac)]-N-[3Pal]-[Sarc]-NH2 [Peptide 141],IC50,IL-23R,0.889 nM
Ac-[Pen]-N-T-[W(7-Me)]-[Lys(Ac)]-[Pen]-Phe[4-(2-aminoethoxy)]-[2-Nal]-[a-MeLys]-[Lys(Ac)]-N-[(D)Ser]-[(D)NMeTyr]-NH2 [Peptide 204],IC50,[4],6.4 nM
Ac-[Pen]-N-T-[W(7-Me)]-[Lys(Ac)]-[Pen]-Phe[4-(2-aminoethoxy)]-[2-Nal]-[a-MeLys]-[Lys(Ac)]-N-[(D)Thr]-[(D)NMeTyr]-NH2 [Peptide 91],IC50,[4],14 nM
Ac-[Pen]-N-T-[W(7-Me)]-[Lys(Ac)]-[Pen]-Phe[4-(2-aminoethoxy)]-[2-Nal]-[a-MeLys]-[Lys(Ac)]-N-[(D)Tyr]-[(D)NMeTyr]-NH2 [Peptide 215],IC50,[4],7.3 nM
Ac-[Pen]-N-T-[W(7-Me)]-[Lys(Ac)]-[Pen]-Phe[4-(2-aminoethoxy)]-[2-Nal]-[a-MeLys]-[Lys(Ac)]-N-[(D)Tyr]-[Sarc]-NH2 [Peptide 240],IC50,[4],40 nM
Ac-[Pen]-N-T-[W(7-Me)]-[Lys(Ac)]-[Pen]-Phe[4-(2-aminoethoxy)]-[2-Nal]-[a-MeLys]-[Lys(Ac)]-N-[(D)Tyr]-[Sarc]-NH2 [Peptide 241],IC50,[4],13 nM
Ac-[Pen]-N-T-[W(7-Me)]-[Lys(Ac)]-[Pen]-Phe[4-(2-aminoethoxy)]-[2-Nal]-[a-MeLys]-[Lys(Ac)]-N-[(D)Val]-[(D)NMeTyr]-NH2 [Peptide 90],IC50,[4],7.1 nM
Ac-[Pen]-N-T-[W(7-Me)]-[Lys(Ac)]-[Pen]-Phe[4-(2-aminoethoxy)]-[2-Nal]-[a-MeLys]-[Lys(Ac)]-N-[bAla]-[(D)NMeTyr]-NH2 [Peptide 218],IC50,[4],15 nM
Ac-[Pen]-N-T-[W(7-Me)]-[Lys(Ac)]-[Pen]-Phe[4-(2-aminoethoxy)]-[2-Nal]-[a-MeLys]-[Lys(Ac)]-N-[bAla]-[(D)NMeTyr]-NH2 [Peptide 219],IC50,[4],14 nM
Ac-[Pen]-N-T-[W(7-Me)]-[Lys(Ac)]-[Pen]-Phe[4-(2-aminoethoxy)]-[2-Nal]-[a-MeLys]-[Lys(Ac)]-N-[bAla]-[(D)NMeTyr]-NH2 [Peptide 220],IC50,[4],8.4 nM
Ac-[Pen]-N-T-[W(7-Me)]-[Lys(Ac)]-[Pen]-Phe[4-(2-aminoethoxy)]-[2-Nal]-[a-MeLys]-[Lys(Ac)]-N-[bAla]-[Sarc]-NH2 [Peptide 236],IC50,[4],17 nM
Ac-[Pen]-N-T-[W(7-Me)]-[Lys(Ac)]-[Pen]-Phe[4-(2-aminoethoxy)]-[2-Nal]-[aMeLys]-[Lys(Ac)]-N-[(1-Me)His]-NH2 [Peptide 167],IC50,[4],14 nM
Ac-[Pen]-N-T-[W(7-Me)]-[Lys(Ac)]-[Pen]-Phe[4-(2-aminoethoxy)]-[3-Quin]-[THP]-E-N-[(D)Leu)]-[Sarc]-NH2 [Peptide 6],SIF t½,[1],>24.0 h
same,IC50,[4],4.4 nM
same,t½: Rat Plasma EDTA,Stability in rat plasma,13.9 h
same,t½: Monkey Feces anaerobic,[2],>24.0 h
same,t½: Human Feces anaerobic,[3],>24.0 h
Ac-[Pen]-N-T-[W(7-Me)]-[Phe(4-CONH2)]-[Pen]-Phe[4-(2-aminoethoxy)]-[2-Nal]-[a-MeLys]-[Lys(Ac)]-N-[(D)Lys]-[(D)NMeTyr]-NH2 [Peptide 210],IC50,[4],6.8 nM
Ac-[Pen]-N-T-[W(7-Ph)]-[Lys(Ac)]-[Pen]-Phe[4-(2-aminoethoxy)]-[2-Nal]-[THP]-[Lys(Ac)]-N-[3Pal]-[Sarc]-NH2 [Peptide 136],IC50,[4],0.011 nM
Ac-[Pen]-N-T-[W(7-Ph)]-[Lys(Ac)]-[Pen]-Phe[4-(2-aminoethoxy)]-[3Quin]-[THP]-E-N-[(D)Lys]-[Sarc]-NH2 [Peptide 11],SIF t½,[1],>24.0 h
same,IC50,[4],5.4 nM
same,t½: Rat Plasma EDTA,Stability in rat plasma,12.5 h
same,t½: Monkey Feces anaerobic,[2],>24.0 h
same,t½: Human Feces anaerobic,[3],>24.0 h
same,IC50,[5],1.73 nM
Ac-[Pen]-N-T-[W(7-Ph)]-[Lys(Ac)]-[Pen]-Phe[4-(2-aminoethoxy)]-[3Quin]-[a-MeLys]-[Lys(Ac)]-N-[(D)Lys]-[Sarc]-NH2 [Peptide 12],SIF t½,[1],>24.0 h
same,IC50,[4],10 nM
same,t½: Rat Plasma EDTA,Stability in rat plasma,>24.0 h
same,t½: Monkey Feces anaerobic,[2],>24.0 h
same,t½: Human Feces anaerobic,[3],>24.0 h
same,IC50,[5],1.91 nM
Ac-[Pen]-[Gly(Allyl)]-D-[W(7-Me)]-[Lys(Ac)]-[Pen]-[Tyr(O-Allyl)]-[2-Nal]-[THP]-[Lys(Ac)]-N-[3Pal]-[Sarc]-NH2 [Peptide 288],IC50,IL-23R,0.062 nM
Ac-[Pen]-[Gly(Allyl)]-T-(W(4-F)]-[Lys(Ac)]-[Pen]-[Tyr(O-Allyl)]-[2-Nal]-[THP]-[Lys(Ac)]-N-[3Pal]-[Sarc]-NH2 [Peptide 289],IC50,IL-23R,0.059 nM

# From patent US11845808B2, “Peptide inhibitors of interleukin-23 receptor and their use to treat inflammatory diseases” (Janssen Biotech, Inc., priority 2020, dated 2023)
